## Yeast mating assay 2: variants of the scFv Ab-91

Data: MIT Lincoln Laboratory AlphaSeq set, Engelhart et al. 2022, doi:10.1038/s41597-022-01779-4, as distributed in FLAb.

The target is the same throughout: PDVDLGDISGINAS, from the HR2 region of SARS-CoV-2 spike.

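The starting antibody came from a phage panning campaign against this peptide. In library AAYL51, one, two or three CDR residues were substituted; doubles and triples were drawn at random. The assay is AlphaSeq: two haploid yeast populations carry antibody and antigen on their surface. After mating in shaken culture at 30 °C for 16 h, diploids were selected and their barcode pairs sequenced. The ratio of observed to expected reads was calibrated, replicate by replicate, on BCL2-family standards whose Kd was known from biolayer interferometry. Mating was done three times.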

Parent scFv Ab-91: VL joined to VH by three GGGGS repeats. Changes lie in the heavy chain CDRs alone.
VL: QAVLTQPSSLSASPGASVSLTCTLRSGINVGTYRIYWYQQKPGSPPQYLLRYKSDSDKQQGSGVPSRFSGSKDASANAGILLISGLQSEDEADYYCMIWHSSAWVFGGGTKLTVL
VH: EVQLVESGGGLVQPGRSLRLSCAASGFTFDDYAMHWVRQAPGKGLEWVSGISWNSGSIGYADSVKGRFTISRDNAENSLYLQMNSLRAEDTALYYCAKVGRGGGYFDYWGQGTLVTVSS

Positions count from residue 1 of the parent VH; N54T puts T in place of N.
This list gathers variants with a substitution at Y108 (VH, numbered from residue 1).
Kd is apparent (estimated from mating counts) and averaged on the log scale over replicates with a signal. Smaller is tighter.
An entry "not detected" has no value in the source: the pair was not observed among the diploids in any replicate. This suggests poor binding but is not conclusive.
In this assay the parent's reference entry averaged 72 nM; its copy inside this library read 7.5 nM.
Background: pairings of library AAYL51 with three empty control strains gave a value in 21% of cases (median 34 µM, 5th percentile 1.8 µM). Values in that range, when seen in few replicates, are hard to tell from nonspecific mating.

changes,apparent Kd,seen in
N54T/G56R/Y108I,600 µM,2/3
F29S/Y32A/Y108G,250 µM,2/3
G26A/G102K/Y108E,not detected,0/3
I58V/Y108R,3.9 nM,3/3
Y32F/W53R/Y108G,3.8 µM,1/3
F27T/S57G/Y108W,27 µM,3/3
S52P/V99I/Y108A,12 µM,1/3
M34I/G102W/Y108S,260 nM,3/3
S55F/K65E/Y108E,not detected,0/3
Y108G,530 nM,3/3
D30R/I51C/Y108D,1.2 µM,3/3
Y105F/Y108P,2.2 µM,3/3
Y108N,1.5 µM,3/3
G104V/Y108H,not detected,0/3
S57V/D107K/Y108G,3.3 µM,1/3
A33F/Y108G,20 µM,2/3
H35G/I58D/Y108W,97 µM,3/3
D30F/D31I/Y108H,5.4 µM,2/3
S52E/R101S/Y108I,18 µM,2/3
G50M/D62K/Y108Q,not detected,0/3
N54R/V64W/Y108K,81 µM,2/3
A33T/G56T/Y108S,not detected,0/3
W53Y/Y108N,not detected,0/3
A61H/Y105V/Y108V,19 µM,3/3
A33K/R101A/Y108G,330 µM,1/3
N54Q/G104C/Y108W,59 µM,2/3
G50S/A61P/Y108W,3.8 µM,1/3
G26M/H35Q/Y108W,10 µM,1/3
T28Y/G103Q/Y108C,not detected,0/3
D30M/G59C/Y108M,29 µM,1/3
K65M/D107P/Y108Q,not detected,0/3
I51P/Y60M/Y108C,not detected,0/3
M34G/S63G/Y108E,340 µM,2/3
M34H/I58C/Y108K,33 nM,3/3
S52K/I58T/Y108G,22 µM,2/3
G59T/D62H/Y108P,86 µM,1/3
A33T/Y108M,9.7 µM,2/3
S63W/R101D/Y108I,not detected,0/3
W53Y/G56L/Y108K,39 nM,3/3
I51Q/D107A/Y108T,230 µM,1/3
G100K/Y108M,49 µM,2/3
A33C/G104H/Y108P,not detected,0/3
V99E/Y108L,710 pM,3/3
F29K/G100F/Y108C,not detected,0/3
S63E/G104W/Y108H,46 µM,2/3
H35T/R101W/Y108K,25 µM,2/3
F27V/G56L/Y108T,not detected,0/3
V64W/K65Q/Y108P,91 µM,2/3
V99S/G103N/Y108S,4.5 µM,1/3
Y108M,620 nM,3/3
S63L/G102W/Y108M,99 nM,3/3
T28M/Y60C/Y108F,13 µM,3/3
I51M/Y108C,480 nM,3/3
N54E/G100D/Y108W,not detected,0/3
S52D/Y108C,450 nM,3/3
A33I/S63W/Y108D,17 µM,1/3
A33H/N54K/Y108I,53 µM,1/3
I51K/I58D/Y108E,not detected,0/3
I58G/G103N/Y108I,not detected,0/3
I58K/D62S/Y108A,9.9 nM,3/3
Y108L,3.5 nM,3/3
I51D/G103N/Y108V,not detected,0/3
I51L/S57F/Y108W,62 µM,2/3
I58A/G100F/Y108E,70 µM,2/3
A33E/Y60Q/Y108E,3.0 µM,2/3
H35D/K65P/Y108W,not detected,0/3

The opening 7 entries, copied out:

changes	apparent Kd	seen in
N54T/G56R/Y108I	600 µM	2/3
F29S/Y32A/Y108G	250 µM	2/3
G26A/G102K/Y108E	not detected	0/3
I58V/Y108R	3.9 nM	3/3
Y32F/W53R/Y108G	3.8 µM	1/3
F27T/S57G/Y108W	27 µM	3/3
S52P/V99I/Y108A	12 µM	1/3